Data as given in PubChem BioAssay AID1259372 (The Scripps Research Institute Molecular Screening Center, 2018).
Only a part is listed here, and it is no random draw. Activity calls are given as the source filed them.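 The calls were made as follows: active = inhibition above a cutoff derived from the DMSO control wells (cut at about 28% in these data); inactive = the rest.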

By UniProt entry, the sequences of proteins in these tests, tags left out. Where a name states a change or a piece, a line headed by the entry shows the natural chain unless it says otherwise.
UniProt O75030: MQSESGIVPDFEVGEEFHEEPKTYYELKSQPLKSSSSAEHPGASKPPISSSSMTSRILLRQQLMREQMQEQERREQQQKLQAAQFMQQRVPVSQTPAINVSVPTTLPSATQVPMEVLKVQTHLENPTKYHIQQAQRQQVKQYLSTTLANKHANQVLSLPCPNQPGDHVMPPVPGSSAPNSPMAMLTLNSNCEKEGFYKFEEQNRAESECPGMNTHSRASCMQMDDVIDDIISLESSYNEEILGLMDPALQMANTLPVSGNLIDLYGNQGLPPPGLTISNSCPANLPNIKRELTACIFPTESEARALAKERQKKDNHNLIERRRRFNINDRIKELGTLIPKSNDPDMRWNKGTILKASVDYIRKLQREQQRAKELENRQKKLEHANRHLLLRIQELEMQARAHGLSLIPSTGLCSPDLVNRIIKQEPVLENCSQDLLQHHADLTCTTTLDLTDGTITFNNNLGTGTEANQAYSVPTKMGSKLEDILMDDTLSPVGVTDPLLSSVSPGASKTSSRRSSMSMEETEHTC

Each molecule was assayed against Microphthalmia-associated transcription factor (Homo sapiens) (UniProt O75030) (assay: MITF inhibitors, retest of hits, confirmation, biochemical, AlphaScreen, triplicate (AID 1259372)). Settings: AlphaScreen MITF homodimerization, biotin/His-MITF beads; at 2.6 µM; active compounds read high.
`Cc1ccc([N+](=O)[O-])c2no[n+]([O-])c12` was tested, and the inhibition was active: 75.2%.
For `CC(C)OP(=O)(OC(C)C)C(=O)c1ccco1`, the inhibition was active: 70.8%.
With `CCOP(=O)(CN)OCC` the inhibition was inactive: 6.96%.
